# Measurements: BindingDB's records for doi:10.7270/Q2N29VCW (University of Pittsburgh, 2009)
# Biological target: T1, Phosphotransferase (Trypanosoma brucei brucei (strain 927/4 GUTat10.1), UniProt Q38C41)
# T1 sequence (Q38C41 whole entry): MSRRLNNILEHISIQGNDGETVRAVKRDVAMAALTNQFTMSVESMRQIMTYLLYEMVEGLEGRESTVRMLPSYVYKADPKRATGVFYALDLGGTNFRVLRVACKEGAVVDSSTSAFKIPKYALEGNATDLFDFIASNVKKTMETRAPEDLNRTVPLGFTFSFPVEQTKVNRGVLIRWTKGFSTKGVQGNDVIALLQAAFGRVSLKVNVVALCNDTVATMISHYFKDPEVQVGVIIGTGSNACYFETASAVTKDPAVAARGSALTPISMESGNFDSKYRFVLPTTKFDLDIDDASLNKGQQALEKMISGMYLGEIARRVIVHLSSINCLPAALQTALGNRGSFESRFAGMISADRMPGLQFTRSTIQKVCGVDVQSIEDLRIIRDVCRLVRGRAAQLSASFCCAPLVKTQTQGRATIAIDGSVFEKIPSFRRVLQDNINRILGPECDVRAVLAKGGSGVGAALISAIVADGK
smiles,measurement,value
O=c1c2ccccc2[se]n1-c1ccccc1 [2-Phenyl-benzo[d]isoselenazol-3-one],IC50,901 nM
